The values below come from ChEMBL document CHEMBL3351781, “Assessment of antidotal efficacy of cholinesterase reactivators against paraoxon: In vitro reactivation kinetics and physicochemical properties” (2014).

Sequences of proteins named here, by UniProt entry; tags and fusion partners are left off. A change or cut given only in a name is not applied to a line headed by its entry.
UniProt P22303: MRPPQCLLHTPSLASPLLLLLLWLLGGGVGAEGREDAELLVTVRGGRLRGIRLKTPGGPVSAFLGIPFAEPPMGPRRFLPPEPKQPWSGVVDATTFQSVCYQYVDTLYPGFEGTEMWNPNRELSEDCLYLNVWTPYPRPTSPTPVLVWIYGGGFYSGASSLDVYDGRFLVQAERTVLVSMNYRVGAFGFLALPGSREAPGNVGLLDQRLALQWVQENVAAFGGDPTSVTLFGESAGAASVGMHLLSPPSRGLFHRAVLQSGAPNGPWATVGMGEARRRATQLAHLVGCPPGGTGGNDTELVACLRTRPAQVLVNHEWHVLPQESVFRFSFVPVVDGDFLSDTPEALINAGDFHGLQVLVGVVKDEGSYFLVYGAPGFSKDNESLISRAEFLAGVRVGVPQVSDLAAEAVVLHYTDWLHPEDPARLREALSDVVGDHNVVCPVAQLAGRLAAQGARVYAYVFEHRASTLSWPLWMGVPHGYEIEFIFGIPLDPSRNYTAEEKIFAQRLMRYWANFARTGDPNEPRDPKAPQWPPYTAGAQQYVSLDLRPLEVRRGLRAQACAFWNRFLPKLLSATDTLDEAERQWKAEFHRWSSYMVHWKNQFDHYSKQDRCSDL

This assay concerns the target Acetylcholinesterase (Homo sapiens) (UniProt P22303). Kind of assay: Maximum reactivation of paraoxon-inhibited AChE (unknown origin).
Regarding `O/N=C/c1cc[n+](Cc2ccc(C[n+]3ccc(/C=N/O)cc3)cc2)cc1`, the max activation came to 49%. As for `NC(=O)c1cc[n+](Cc2ccc(C[n+]3ccc(/C=N/O)cc3)cc2)cc1`, the max activation was determined as 34%. The compound `C[n+]1ccc(/C=N/O)cc1` returned a max activation of 66%. Compound `O/N=C/c1cc[n+](CCC[n+]2ccc(/C=N/O)cc2)cc1` returned a max activation of 93%. The same measure for `CC(=O)/C=N/O`: 55%; for `NC(=O)c1cc[n+](CCC[n+]2ccc(/C=N/O)cc2)cc1`: 66%; for `O/N=C\c1cc[n+](Cc2ccccc2C[n+]2ccc(/C=N\O)cc2)cc1`: 55%.

`C[n+]1ccccc1C=NO`: the max activation stood at 68%. As for `NC(=O)c1cc[n+](Cc2ccccc2C[n+]2ccc(/C=N/O)cc2)cc1`, the max activation worked out at 31%. In the case of `NC(=O)c1cc[n+](C/C=C\C[n+]2ccc(/C=N/O)cc2)cc1`, the max activation came out at 51%. In the case of `NC(=O)c1cc[n+](Cc2cccc(C[n+]3ccc(/C=N/O)cc3)c2)cc1`, the max activation worked out at 35%. The result for `NC(=O)c1cc[n+](CCCC[n+]2ccc(/C=N/O)cc2)cc1` reads 68%; that for `CC(=O)/C(C)=N/O`, 20%; that for `C[n+]1cccc(/C=N/O)c1`, 31%.
